{"source": "patent US20040037843A1", "about": "“Inducing cellular immune responses to prostate cancer antigens using peptide and nucleic acid compositions” (priority 2003, published 2004)", "data": [{"tested_on": "HLA-A2 supertype molecules (A*0201, A*0202, A*0203, A*0206, A*6802)", "test": "A2-supertype cross-reactive binding (number of the five alleles bound)", "parameters": "species or system human", "conditions": "number of the five A2-supertype alleles bound", "values": [{"smiles": "CC(C)C[C@H](NC(=O)[C@H](CO)NC(=O)[C@H](C)NC(=O)[C@H](C)NC(=O)[C@H](CCCNC(=N)N)NC(=O)[C@H](C)NC(=O)[C@H](CC(C)C)NC(=O)[C@@H](N)CC(C)C)C(=O)N[C@@H](CO)C(=O)N[C@H](C(=O)O)C(C)C", "note": "[Peptide 63.0031]", "A2 Cross-Reactivity": 4}, {"smiles": "CC[C@H](C)[C@H](NC(=O)[C@H](CC(=O)O)NC(=O)[C@H](Cc1ccccc1)NC(=O)[C@@H](NC(=O)[C@H](C)N)[C@@H](C)O)C(=O)N[C@@H](CCC(=O)O)C(=O)N[C@@H](CO)C(=O)N[C@@H](CCCCN)C(=O)N[C@H](C(=O)O)C(C)C", "note": "[Peptide 1418.30]", "A2 Cross-Reactivity": 5}, {"smiles": "CC(C)C[C@H](NC(=O)[C@H](C)N)C(=O)N[C@@H](CO)C(=O)N[C@H](C(=O)NCC(=O)N[C@@H](CS)C(=O)N[C@H](C(=O)NCC(=O)N[C@H](C(=O)O)C(C)C)[C@@H](C)O)C(C)C", "note": "[Peptide 1418.15]", "A2 Cross-Reactivity": 4}, {"smiles": "CC(C)C[C@H](NC(=O)[C@H](CC(=O)O)NC(=O)CNC(=O)[C@H](CCC(=O)O)NC(=O)[C@@H]1CCCN1C(=O)[C@H](CC(C)C)NC(=O)CN)C(=O)N[C@H](C(=O)N[C@@H](Cc1ccc(O)cc1)C(=O)N[C@H](C(=O)O)C(C)C)C(C)C", "note": "[Peptide 1389.22]", "A2 Cross-Reactivity": 4}, {"smiles": "CC(C)C[C@H](NC(=O)[C@H](Cc1ccccc1)NC(=O)[C@H](CC(C)C)NC(=O)[C@H](Cc1ccccc1)NC(=O)CNC(=O)[C@H](CC(C)C)NC(=O)[C@H](CO)NC(=O)[C@H](CC(C)C)NC(=O)[C@H](CO)NC(=O)[C@H](C)NC(=O)[C@H](C)N)C(=O)O", "note": "[Peptide 63.0137]", "A2 Cross-Reactivity": 4}, {"smiles": "CC(C)C[C@H](NC(=O)[C@H](CO)NC(=O)[C@H](CC(C)C)NC(=O)[C@H](CO)NC(=O)[C@H](C)NC(=O)[C@H](C)NC(=O)[C@H](CCCNC(=N)N)NC(=O)[C@H](C)NC(=O)[C@H](CC(C)C)NC(=O)[C@@H](N)CC(C)C)C(=O)O", "note": "[Peptide 20.0203]", "A2 Cross-Reactivity": 3}, {"smiles": "CC(C)C[C@H](NC(=O)[C@H](CO)NC(=O)[C@@H](NC(=O)[C@H](CS)NC(=O)[C@H](CCC(N)=O)NC(=O)[C@H](CC(C)C)NC(=O)[C@@H](N)CO)C(C)C)C(=O)N[C@@H](Cc1c[nH]cn1)C(=O)N[C@H](C(=O)O)C(C)C", "note": "[Peptide 1418.19]", "A2 Cross-Reactivity": 3}, {"smiles": "CC(C)C[C@H](NC(=O)[C@H](CO)NC(=O)[C@@H](NC(=O)[C@H](CS)NC(=O)[C@H](CCC(N)=O)NC(=O)[C@H](CC(C)C)NC(=O)[C@@H](N)CO)C(C)C)C(=O)N[C@@H](Cc1c[nH]cn1)C(=O)N[C@@H](CC(C)C)C(=O)N[C@H](C(=O)O)C(C)C", "note": "[Peptide 1418.52]", "A2 Cross-Reactivity": 5}, {"smiles": "CC[C@H](C)[C@H](NC(=O)[C@H](Cc1ccccc1)NC(=O)[C@H](C)NC(=O)[C@H](CCCNC(=N)N)NC(=O)[C@H](CCC(=O)O)NC(=O)[C@H](CC(C)C)NC(=O)[C@H](Cc1ccccc1)NC(=O)[C@H](CCSC)NC(=O)[C@H](CC(C)C)NC(=O)[C@@H](N)CCC(N)=O)C(=O)O", "note": "[Peptide 1126.16]", "A2 Cross-Reactivity": 4}, {"smiles": "CC(C)C[C@H](NC(=O)[C@H](CC(C)C)NC(=O)CNC(=O)[C@H](CC(N)=O)NC(=O)[C@H](Cc1ccc(O)cc1)NC(=O)[C@@H](NC(=O)[C@H](CC(=O)O)NC(=O)[C@H](CC(C)C)NC(=O)[C@H](C)N)C(C)C)C(=O)O", "note": "[Peptide 1177.02]", "A2 Cross-Reactivity": 3}, {"smiles": "CSCC[C@H](NC(=O)[C@H](CC(=O)O)NC(=O)[C@H](CC(N)=O)NC(=O)[C@H](CO)NC(=O)[C@H](CC(C)C)NC(=O)[C@H](CC(C)C)NC(=O)[C@H](Cc1c[nH]cn1)NC(=O)[C@H](CC(C)C)NC(=O)[C@@H](N)CO)C(=O)N[C@@H](CS)C(=O)N[C@H](C(=O)O)C(C)C", "note": "[Peptide 1418.66]", "A2 Cross-Reactivity": 3}, {"smiles": "CC[C@H](C)[C@H](NC(=O)[C@@H]1CCCN1C(=O)[C@H](CCC(N)=O)NC(=O)[C@H](Cc1c[nH]c2ccccc12)NC(=O)[C@H](CC(C)C)NC(=O)[C@H](CC(C)C)NC(=O)[C@H](CC(C)C)NC(=O)[C@@H]1CCCN1)C(=O)N1CCC[C@H]1C(=O)N[C@H](C(=O)O)C(C)C", "note": "[Peptide 63.0042]", "A2 Cross-Reactivity": 4}, {"smiles": "CC(C)C[C@H](NC(=O)[C@H](CO)NC(=O)[C@H](C)NC(=O)[C@H](C)NC(=O)[C@H](CCCNC(=N)N)NC(=O)[C@H](C)NC(=O)[C@H](CC(C)C)NC(=O)[C@H](CC(C)C)NC(=O)[C@@H](N)CC(C)C)C(=O)O", "note": "[Peptide 20.0044]", "A2 Cross-Reactivity": 4}, {"smiles": "CC[C@H](C)[C@H](N)C(=O)N[C@@H](CC(C)C)C(=O)N[C@@H](CC(C)C)C(=O)N[C@@H](CO)C(=O)N[C@H](C(=O)NCC(=O)N[C@@H](CS)C(=O)N[C@H](C(=O)NCC(=O)N[C@@H](C)C(=O)N[C@H](C(=O)O)C(C)C)[C@@H](C)O)C(C)C", "note": "[Peptide 1418.57]", "A2 Cross-Reactivity": 4}, {"smiles": "CSCC[C@H](NC(=O)[C@H](CCC(N)=O)NC(=O)[C@H](CC(C)C)NC(=O)CNC(=O)[C@H](CO)NC(=O)[C@@H](NC(=O)[C@@H](N)[C@@H](C)O)C(C)C)C(=O)N[C@@H](C)C(=O)N[C@H](C(=O)O)C(C)C", "note": "[Peptide 60.0213]", "A2 Cross-Reactivity": 5}, {"smiles": "CC[C@H](C)[C@H](NC(=O)[C@H](CO)NC(=O)[C@@H](NC(=O)CN)C(C)C)C(=O)N[C@@H](Cc1c[nH]c2ccccc12)C(=O)N[C@@H](CC(N)=O)C(=O)N1CCC[C@H]1C(=O)N[C@H](C(=O)N[C@@H](CC(C)C)C(=O)N[C@H](C(=O)O)C(C)C)[C@@H](C)CC", "note": "[Peptide 63.0041]", "A2 Cross-Reactivity": 4}, {"smiles": "CC(C)C[C@H](NC(=O)[C@H](CC(C)C)NC(=O)[C@@H](N)CC(C)C)C(=O)N[C@@H](C)C(=O)N[C@@H](CCCNC(=N)N)C(=O)N[C@@H](C)C(=O)N[C@@H](C)C(=O)N[C@@H](CO)C(=O)N[C@H](C(=O)O)C(C)C", "note": "[Peptide 60.0201]", "A2 Cross-Reactivity": 4}, {"smiles": "CC[C@H](C)[C@H](NC(=O)[C@H](Cc1c[nH]c2ccccc12)NC(=O)[C@@H](NC(=O)[C@@H](NC(=O)[C@H](CO)NC(=O)[C@H](CC(C)C)NC(=O)[C@@H](NC(=O)[C@H](CC(C)C)NC(=O)[C@H](Cc1ccccc1)NC(=O)[C@@H](NC(=O)[C@@H](N)C(C)C)C(C)C)[C@@H](C)O)C(C)C)[C@@H](C)O)C(=O)O", "note": "[Peptide 1419.25]", "A2 Cross-Reactivity": 3}, {"smiles": "CC[C@H](C)[C@H](NC(=O)[C@H](CO)NC(=O)[C@@H](NC(=O)CNC(=O)[C@H](CCC(=O)O)NC(=O)[C@@H]1CCCN1C(=O)[C@@H]1CCCN1C(=O)[C@H](Cc1ccccc1)NC(=O)[C@H](CC(C)C)NC(=O)[C@H](C)N)C(C)C)C(=O)O", "note": "[Peptide 1419.6]", "A2 Cross-Reactivity": 3}, {"smiles": "CC(C)C[C@H](NC(=O)[C@H](CO)NC(=O)[C@H](CC(C)C)NC(=O)[C@H](CO)NC(=O)[C@H](C)NC(=O)[C@H](C)NC(=O)[C@H](CCCNC(=N)N)NC(=O)[C@H](C)NC(=O)[C@H](CC(C)C)NC(=O)[C@H](CC(C)C)NC(=O)[C@@H](N)CC(C)C)C(=O)O", "note": "[Peptide 63.0136]", "A2 Cross-Reactivity": 5}, {"smiles": "CC(C)C[C@H](NC(=O)[C@H](CC(C)C)NC(=O)[C@@H](N)CO)C(=O)N[C@@H](C)C(=O)N[C@@H](CCCCN)C(=O)N[C@@H](CCC(=O)O)C(=O)N[C@@H](CC(C)C)C(=O)N[C@@H](CCCCN)C(=O)N[C@@H](Cc1ccccc1)C(=O)N[C@H](C(=O)O)C(C)C", "note": "[Peptide 63.0033]", "A2 Cross-Reactivity": 4}, {"smiles": "CC(C)C[C@H](NC(=O)[C@H](CC(C)C)NC(=O)[C@H](Cc1c[nH]cn1)NC(=O)[C@H](CC(C)C)NC(=O)[C@H](CO)NC(=O)[C@@H](NC(=O)[C@H](CS)NC(=O)[C@H](CCC(N)=O)NC(=O)[C@H](CC(C)C)NC(=O)[C@@H](N)CO)C(C)C)C(=O)O", "note": "[Peptide 1419.66]", "A2 Cross-Reactivity": 4}, {"smiles": "CC(C)C[C@H](NC(=O)[C@@H](NC(=O)[C@@H](NC(=O)[C@H](Cc1ccccc1)NC(=O)[C@H](CCCCN)NC(=O)[C@H](CC(C)C)NC(=O)[C@H](CCC(=O)O)NC(=O)[C@H](CCCCN)NC(=O)[C@H](C)NC(=O)[C@H](CC(C)C)NC(=O)[C@@H](N)C(C)C)C(C)C)[C@@H](C)O)C(=O)O", "note": "[Peptide 63.0142]", "A2 Cross-Reactivity": 4}, {"smiles": "CSCC[C@H](NC(=O)[C@H](CC(=O)O)NC(=O)[C@H](CC(N)=O)NC(=O)[C@H](CO)NC(=O)[C@H](CC(C)C)NC(=O)[C@H](CC(C)C)NC(=O)[C@@H](N)Cc1c[nH]cn1)C(=O)N[C@@H](CS)C(=O)N[C@H](C(=O)O)C(C)C", "note": "[Peptide 1418.20]", "A2 Cross-Reactivity": 4}, {"smiles": "CSCC[C@H](NC(=O)[C@H](C)NC(=O)[C@H](CO)NC(=O)[C@H](CCSC)NC(=O)[C@H](CC(C)C)NC(=O)[C@@H](N)[C@@H](C)O)C(=O)N[C@H](C(=O)N[C@@H](CC(N)=O)C(=O)N[C@@H](CC(C)C)C(=O)N[C@@H](C)C(=O)O)[C@@H](C)O", "note": "[Peptide 20.0312]", "A2 Cross-Reactivity": 3}, {"smiles": "CSCC[C@H](NC(=O)[C@H](Cc1ccccc1)NC(=O)[C@H](CCCCN)NC(=O)[C@@H](NC(=O)[C@@H](NC(=O)[C@@H](N)CCCCN)C(C)C)[C@@H](C)O)C(=O)N[C@@H](CC(C)C)C(=O)N[C@@H](CS)C(=O)N[C@H](C(=O)O)C(C)C", "note": "[Peptide 60.0220]", "A2 Cross-Reactivity": 3}, {"smiles": "CSCC[C@H](NC(=O)[C@H](Cc1ccccc1)NC(=O)[C@H](CCC(=O)O)NC(=O)[C@@H](NC(=O)[C@@H](NC(=O)[C@@H](N)CCCCN)C(C)C)[C@@H](C)O)C(=O)N[C@@H](CC(C)C)C(=O)N[C@@H](CS)C(=O)N[C@H](C(=O)O)C(C)C", "note": "[Peptide 1418.21]", "A2 Cross-Reactivity": 4}, {"smiles": "CC(C)C[C@H](NC(=O)[C@@H](N)Cc1ccccc1)C(=O)N[C@@H](CC(N)=O)C(=O)N[C@@H](CCC(=O)O)C(=O)N[C@@H](CO)C(=O)N[C@@H](Cc1ccc(O)cc1)C(=O)N[C@@H](CCCCN)C(=O)N[C@@H](Cc1c[nH]cn1)C(=O)N[C@@H](CCC(=O)O)C(=O)N[C@@H](CCC(N)=O)C(=O)N[C@H](C(=O)O)C(C)C", "note": "[Peptide 1419.55]", "A2 Cross-Reactivity": 4}, {"smiles": "CSCC[C@H](NC(=O)[C@H](CC(=O)O)NC(=O)[C@H](CC(N)=O)NC(=O)[C@H](CO)NC(=O)[C@H](CC(C)C)NC(=O)[C@H](CC(C)C)NC(=O)[C@@H](N)Cc1c[nH]cn1)C(=O)N[C@@H](CS)C(=O)N[C@@H](C)C(=O)N[C@@H](CCCNC(=N)N)C(=O)N[C@H](C(=O)O)C(C)C", "note": "[Peptide 1418.67]", "A2 Cross-Reactivity": 4}]}, {"tested_on": "HLA-A2 supertype molecules (A*0201, A*0202, A*0203, A*0206, A*6802)", "test": "A2-supertype cross-reactive binding (number of the five alleles bound)", "parameters": "species or system human", "conditions": "number of the five A2 supertype alleles bound at <200nM", "values": [{"smiles": "CC(C)C[C@H](NC(=O)[C@H](CC(=O)O)NC(=O)[C@@H](NC(=O)[C@H](CS)NC(=O)[C@H](CCC(N)=O)NC(=O)[C@H](CC(C)C)NC(=O)[C@@H](N)CCCCN)C(C)C)C(=O)N[C@@H](Cc1c[nH]cn1)C(=O)N[C@H](C(=O)N[C@H](C(=O)O)C(C)C)C(C)C", "note": "[Peptide 1419.24]", "Cross-Reactivity (<200nM)": 3}]}]}
